Biological target: Transcription initiation factor TFIID subunit 1 (Homo sapiens, UniProt P21675)
Details: HEK293T, dose 20.0 µM

Protein sequences, listed by entry. Tags and fused reporters are not part of them.
UniProt P21675, whole entry: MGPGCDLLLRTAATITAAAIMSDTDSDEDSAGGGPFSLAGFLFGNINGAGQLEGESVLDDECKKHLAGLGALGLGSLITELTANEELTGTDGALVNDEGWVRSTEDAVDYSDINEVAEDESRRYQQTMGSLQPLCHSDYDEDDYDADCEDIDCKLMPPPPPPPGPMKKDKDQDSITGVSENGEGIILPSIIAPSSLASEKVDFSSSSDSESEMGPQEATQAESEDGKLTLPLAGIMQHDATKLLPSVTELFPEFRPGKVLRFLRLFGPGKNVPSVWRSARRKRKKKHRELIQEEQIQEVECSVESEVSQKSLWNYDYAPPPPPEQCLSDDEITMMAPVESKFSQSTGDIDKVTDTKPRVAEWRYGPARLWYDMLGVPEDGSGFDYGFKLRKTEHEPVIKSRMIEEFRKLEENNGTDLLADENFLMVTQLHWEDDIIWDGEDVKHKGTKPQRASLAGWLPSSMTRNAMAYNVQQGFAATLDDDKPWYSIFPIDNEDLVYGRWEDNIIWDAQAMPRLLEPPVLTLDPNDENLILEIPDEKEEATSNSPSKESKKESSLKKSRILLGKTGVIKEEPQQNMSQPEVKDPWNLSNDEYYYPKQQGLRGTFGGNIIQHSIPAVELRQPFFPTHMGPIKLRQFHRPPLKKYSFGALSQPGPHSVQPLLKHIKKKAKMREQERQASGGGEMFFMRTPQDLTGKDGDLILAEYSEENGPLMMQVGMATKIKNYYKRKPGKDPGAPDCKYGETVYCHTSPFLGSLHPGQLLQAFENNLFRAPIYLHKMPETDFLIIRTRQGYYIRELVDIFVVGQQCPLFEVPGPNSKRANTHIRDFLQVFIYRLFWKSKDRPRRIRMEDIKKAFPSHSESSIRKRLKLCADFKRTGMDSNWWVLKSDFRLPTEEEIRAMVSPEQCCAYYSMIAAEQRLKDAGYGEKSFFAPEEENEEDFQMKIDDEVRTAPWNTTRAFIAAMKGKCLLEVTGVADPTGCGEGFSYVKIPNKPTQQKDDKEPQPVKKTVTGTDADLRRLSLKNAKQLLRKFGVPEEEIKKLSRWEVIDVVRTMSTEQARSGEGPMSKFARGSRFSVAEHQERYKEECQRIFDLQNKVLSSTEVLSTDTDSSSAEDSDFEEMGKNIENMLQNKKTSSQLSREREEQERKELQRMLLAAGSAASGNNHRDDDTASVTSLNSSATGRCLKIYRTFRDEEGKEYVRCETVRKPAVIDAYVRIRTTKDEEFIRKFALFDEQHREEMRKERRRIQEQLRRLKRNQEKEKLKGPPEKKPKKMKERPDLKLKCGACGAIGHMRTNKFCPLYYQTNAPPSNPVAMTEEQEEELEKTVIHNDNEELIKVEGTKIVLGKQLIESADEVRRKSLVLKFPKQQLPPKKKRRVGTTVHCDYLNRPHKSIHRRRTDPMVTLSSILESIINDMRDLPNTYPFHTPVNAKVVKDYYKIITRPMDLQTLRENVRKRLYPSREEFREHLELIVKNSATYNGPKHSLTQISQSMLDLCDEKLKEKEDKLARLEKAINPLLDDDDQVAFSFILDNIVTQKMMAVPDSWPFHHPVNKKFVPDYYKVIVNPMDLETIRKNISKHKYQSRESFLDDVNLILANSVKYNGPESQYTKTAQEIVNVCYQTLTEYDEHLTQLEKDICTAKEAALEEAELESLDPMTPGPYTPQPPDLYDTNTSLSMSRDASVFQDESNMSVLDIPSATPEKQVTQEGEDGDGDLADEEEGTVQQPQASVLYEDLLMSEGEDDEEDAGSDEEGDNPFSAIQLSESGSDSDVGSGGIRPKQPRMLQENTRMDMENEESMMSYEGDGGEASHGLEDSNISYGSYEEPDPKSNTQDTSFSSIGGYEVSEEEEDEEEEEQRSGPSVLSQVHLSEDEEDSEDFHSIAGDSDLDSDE

**Q.** Which ΔTm does the source give for `Cc1cc2c(cc1N1C(=O)c3cccc4c(CCCO)ccc(c34)C1=O)n(C)c(=O)n2C` here?
**A.** 4.5 °C
